Molecular target: hFcRn ectodomain (human, UniProt P55899)
Assay: SPR (Biacore 4000), Fc immobilised by amine coupling, hFcRn ectodomain as analyte, pH 6.0, 25 C, steady-state fit

Kd: 1500 nM
B1: WT hIgG4 Fc(227-447) (other)
chain: PSCPAPEFLGGPSVFLFPPKPKDTLMISRTPEVTCVVVDVSQEDPEVQFNWYVDGVEVHNAKTKPREEQFNSTYRVVSVLTVLHQDWLNGKEYKCKVSNKGLPSSIEKTISKAKGQPREPQVYTLPPSQEEMTKNQVSLTCLVKGFYPSDIAVEWESNGQPENNYKTTPPVLDSDGSFFLYSRLTVDKSRWQEGNVFSCSVMHEALHNHYTQKSLSLSLGK
modifications: glycosylated (produced in HEK293 cells)

From patent US20210393745A1, “OLIGOMER […] INSULIN-FC CONJUGATES AND THEIR MEDICAL USE” (published 2021)
